Reference: patent US20050113327A1

Key:
[1] = biological target: Rabbit muscle actin, globular (G-) actin polymerized to filamentous (F-) actin (rabbit) (UniProt P68135); assay: co-sedimentation of 1-33 µM RNase B1 with 30 µM F-actin; RNase activity of the supernatant; Scatchard analysis
[2] = biological target: Rabbit muscle actin, globular (G-) actin polymerized to filamentous (F-) actin (rabbit) (UniProt P68135); assay: co-sedimentation of 1-33 µM RNase B1 with 30 µM F-actin; Scatchard analysis

RNase:actin molar ratio (abscissa intercept of Scatchard regression line) [1]: 0.45 molar ratio
actin molecules bound per RNase molecule (actin molecules per RNase molecule) [2]: 2
Substance: Aspergillus niger B1 extracellular RNase (RNase B1) (enzyme)
